Literature values, collected in patent US7857977B2, “Packaging of ferric pyrophosphate for dialysis” (Rockwell Medical Technologies, Inc., priority 2005, dated 2010).

fraction of the iron that is bioavailable (after intravenous injection): about half
Substance: iron-dextran
adverse reactions during injection (formulated in water containing 0.9% sodium chloride, parenteral): occasionally causes severe allergic reactions, fever and rashes
